Laboratory results as given in BindingDB's records for doi:10.1016/j.bmcl.2005.10.013 (Universidad De Santiago De Compostela, 2005).

Assay: Inhibition of thrombin-induced platelet aggregation in human

Oc1ccc(/C=C/c2cc(O)cc(O)c2)cc1 [5-[(E)-2-(4-hydroxyphenyl)ethenyl]benzene-1,3-diol]
IC50: 196 µM
